## Apparent affinities of Ab-14 variants for a coronavirus HR2 peptide

Target: peptide PDVDLGDISGINAS, taken from heptad repeat 2 (HR2) of SARS-CoV-2 spike.

Parent scFv Ab-14: VH joined to VL by the linker GGGGSGGGGSGGGGS. Changes lie in the light chain CDRs alone.
VH: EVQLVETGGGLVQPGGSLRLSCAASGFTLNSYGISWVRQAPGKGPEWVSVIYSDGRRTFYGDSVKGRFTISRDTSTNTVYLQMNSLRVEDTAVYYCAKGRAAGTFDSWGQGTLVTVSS
VL: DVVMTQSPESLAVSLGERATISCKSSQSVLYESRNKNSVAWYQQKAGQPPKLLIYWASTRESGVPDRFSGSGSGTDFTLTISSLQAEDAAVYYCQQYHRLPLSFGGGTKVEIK

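The starting antibody came from a phage panning campaign against this peptide. These sequences belong to a second round, designed from the earlier measurements on random variants of the parent. Their group label is 14L_GP_Gen (GP: Gaussian process model; Gen: genetic algorithm; a sequence that several methods proposed may carry one label only). AlphaSeq pools MATa yeast showing the antibodies with MATalpha yeast showing the peptide. The frequency of each diploid, read from paired DNA barcodes, reflects how well the two displayed proteins bind. A regression on co-assayed BCL2-family reference pairs converts the normalised counts of each replicate to an apparent Kd. Mating was done six times.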

Variants are written as CDR1, CDR2 and CDR3 of the light chain (limits as in the source). Parent: KSSQSVLYESRNKNSVA, WASTRES, QQYHRLPLS.
Values are log10 of the apparent Kd in nM; lower means stronger binding.
A mean of the replicates is given; it leaves out those without a signal.
Where no diploid with the target was found in that replicate, the entry reads "ND": below detection, most likely a poor binder, though not proof of it.

{"CDR-L1": "KLSQSVDYESRNKNSVA", "CDR-L2": "EASTREV", "CDR-L3": "QQYHRLPLS", "log10 Kd, replicates": "0.97 0.91 0.42 0.93 0.73 1.34", "log10 Kd (nM), mean": "0.88", "control signals": "2 of 18 (2.57)"}
{"CDR-L1": "KLSQSVLYESRNKNSVA", "CDR-L2": "NASTRCS", "CDR-L3": "QDYHRLPLS", "log10 Kd, replicates": "0.13 -0.01 -0.18 -0.12 0.08 0.10", "log10 Kd (nM), mean": "0.00", "control signals": "0 of 18"}
{"CDR-L1": "KLSQSVDYESRNKNSVA", "CDR-L2": "DASTREQ", "CDR-L3": "QQYHRLPLS", "log10 Kd, replicates": "0.66 0.22 0.45 0.63 0.11 0.71", "log10 Kd (nM), mean": "0.46", "control signals": "1 of 18 (1.98)"}
{"CDR-L1": "KLSQSGLYESRNKNSVA", "CDR-L2": "NASTRLS", "CDR-L3": "QQYHRLPLS", "log10 Kd, replicates": "0.34 -0.08 -0.03 0.08 -0.01 0.27", "log10 Kd (nM), mean": "0.10", "control signals": "3 of 18 (4.00)"}
{"CDR-L1": "KLPQSVLYESRNKNSVA", "CDR-L2": "GASTREQ", "CDR-L3": "QQYHRLPLS", "log10 Kd, replicates": "-0.13 -0.15 -0.42 -0.29 -0.30 -0.27", "log10 Kd (nM), mean": "-0.26", "control signals": "1 of 18 (2.63)"}
{"CDR-L1": "KLQQSVLYESRNKNNVA", "CDR-L2": "GASTRES", "CDR-L3": "QQYHRLPLS", "log10 Kd, replicates": "-0.51 -0.62 -0.65 -0.76 -0.73 -0.42", "log10 Kd (nM), mean": "-0.62", "control signals": "0 of 18"}
{"CDR-L1": "KLSQSVPYESRNKNSVA", "CDR-L2": "DASTRES", "CDR-L3": "QQYHRLPLS", "log10 Kd, replicates": "-0.14 -0.31 -0.27 -0.43 -0.43 -0.35", "log10 Kd (nM), mean": "-0.32", "control signals": "0 of 18"}
{"CDR-L1": "KLLQSWLYESRNKNSVA", "CDR-L2": "NASQRES", "CDR-L3": "QQYHRLPLS", "log10 Kd, replicates": "-0.03 -0.02 0.03 -0.19 -0.33 0.05", "log10 Kd (nM), mean": "-0.08", "control signals": "1 of 18 (1.90)"}
{"CDR-L1": "KLQQSNLYESRNKNSVA", "CDR-L2": "NASTRMS", "CDR-L3": "QQYHRLPLS", "log10 Kd, replicates": "-0.05 -0.23 -0.37 -0.32 -0.22 -0.06", "log10 Kd (nM), mean": "-0.21", "control signals": "1 of 18 (4.36)"}
{"CDR-L1": "KLSQSDLYESRNKNSVA", "CDR-L2": "EASQRES", "CDR-L3": "QQYHRLPLS", "log10 Kd, replicates": "0.09 -0.20 -0.03 -0.28 -0.42 -0.04", "log10 Kd (nM), mean": "-0.15", "control signals": "1 of 18 (1.92)"}
{"CDR-L1": "KSSQSVDYEDRNKNSVA", "CDR-L2": "NASTRES", "CDR-L3": "QQYHRLPLS", "log10 Kd, replicates": "-0.04 0.23 -0.07 -0.13 -0.04 0.12", "log10 Kd (nM), mean": "0.01", "control signals": "4 of 18 (3.37)"}
{"CDR-L1": "KLSQSVDYESRNKNSVA", "CDR-L2": "DASTRMS", "CDR-L3": "QQYHRLPLS", "log10 Kd, replicates": "-0.26 -0.21 -0.22 -0.41 -0.55 -0.14", "log10 Kd (nM), mean": "-0.30", "control signals": "1 of 18 (2.41)"}
{"CDR-L1": "KLSQSVLYEERMKNSVA", "CDR-L2": "NASTRES", "CDR-L3": "QQYHRLPLS", "log10 Kd, replicates": "0.52 0.86 ND 0.27 0.73 1.36", "log10 Kd (nM), mean": "0.75", "control signals": "0 of 18"}
{"CDR-L1": "KLQQSQLYESRNCNSVA", "CDR-L2": "NASTRES", "CDR-L3": "QQYHRLPLS", "log10 Kd, replicates": "0.32 0.02 0.02 -0.17 -0.01 0.15", "log10 Kd (nM), mean": "0.05", "control signals": "0 of 18"}
{"CDR-L1": "KLSQSVLYESRNKNSVA", "CDR-L2": "GASTREV", "CDR-L3": "QQYHRLPLS", "log10 Kd, replicates": "-0.08 -0.36 -0.24 -0.37 -0.29 -0.16", "log10 Kd (nM), mean": "-0.25", "control signals": "4 of 18 (3.33)"}
{"CDR-L1": "KLPQSTLYESRNKNSVA", "CDR-L2": "SASTRES", "CDR-L3": "QQYHRLPLS", "log10 Kd, replicates": "-0.04 -0.04 -0.27 -0.38 -0.33 -0.03", "log10 Kd (nM), mean": "-0.18", "control signals": "1 of 18 (2.10)"}
{"CDR-L1": "KLSQSQLYESRQKNSVA", "CDR-L2": "NASTRLS", "CDR-L3": "QQYHRLPLS", "log10 Kd, replicates": "0.21 -0.05 -0.09 -0.03 -0.08 0.27", "log10 Kd (nM), mean": "0.04", "control signals": "1 of 18 (2.26)"}
{"CDR-L1": "KLSQLELYESRNKNSVA", "CDR-L2": "NASTRES", "CDR-L3": "QQYHRLPLS", "log10 Kd, replicates": "-0.35 -0.33 -0.63 -0.78 -0.60 -0.40", "log10 Kd (nM), mean": "-0.52", "control signals": "0 of 18"}
{"CDR-L1": "KLQQSEEYESRNKNSVA", "CDR-L2": "NASTRES", "CDR-L3": "QQYHRLPLS", "log10 Kd, replicates": "0.20 0.09 0.38 -0.31 -0.12 0.70", "log10 Kd (nM), mean": "0.16", "control signals": "0 of 18"}
{"CDR-L1": "KLQQSQLYESRNKNSVA", "CDR-L2": "NASTREV", "CDR-L3": "QQYHRLPLS", "log10 Kd, replicates": "-0.03 -0.14 -0.20 -0.21 0.00 -0.02", "log10 Kd (nM), mean": "-0.10", "control signals": "0 of 18"}
{"CDR-L1": "KVSQSVWYEQRNKNSVA", "CDR-L2": "EASTRES", "CDR-L3": "QQYHRLPLS", "log10 Kd, replicates": "1.27 2.20 0.98 0.91 0.88 1.04", "log10 Kd (nM), mean": "1.21", "control signals": "0 of 18"}
{"CDR-L1": "KVSPSDLYESRNKNSVA", "CDR-L2": "EASTRES", "CDR-L3": "QQYHRLPLS", "log10 Kd, replicates": "ND ND ND ND ND ND", "log10 Kd (nM), mean": "ND", "control signals": "0 of 18"}
{"CDR-L1": "KLSQSVLYESRNKNSVA", "CDR-L2": "GASYRES", "CDR-L3": "QQYHRLPLS", "log10 Kd, replicates": "-0.18 -0.39 -0.35 -0.64 -0.49 -0.29", "log10 Kd (nM), mean": "-0.39", "control signals": "5 of 18 (3.10)"}
{"CDR-L1": "KLSQSVLYESRMKNNVA", "CDR-L2": "NASTRMS", "CDR-L3": "QQYHRLPLS", "log10 Kd, replicates": "0.14 -0.15 -0.04 -0.31 -0.20 0.17", "log10 Kd (nM), mean": "-0.07", "control signals": "0 of 18"}
{"CDR-L1": "KLSQSVLYESRQKNSVA", "CDR-L2": "NASTRLS", "CDR-L3": "QQYHRLPLS", "log10 Kd, replicates": "0.34 0.16 0.29 0.03 0.25 0.37", "log10 Kd (nM), mean": "0.24", "control signals": "2 of 18 (3.03)"}
{"CDR-L1": "KLSQSVLYESQNKNSVA", "CDR-L2": "NASTRMS", "CDR-L3": "QQYHRLPLS", "log10 Kd, replicates": "0.20 0.01 0.39 0.07 0.29 0.39", "log10 Kd (nM), mean": "0.22", "control signals": "1 of 18 (1.77)"}
{"CDR-L1": "KVQQSELYESRNKNSVA", "CDR-L2": "NASTRLS", "CDR-L3": "QQYHRLPLS", "log10 Kd, replicates": "0.45 0.56 -0.02 0.28 0.59 0.31", "log10 Kd (nM), mean": "0.36", "control signals": "0 of 18"}

Picked from the list: the 4 lowest averages where every replicate gave a value.

CDR-L1,CDR-L2,CDR-L3,"log10 Kd, replicates","log10 Kd (nM), mean",control signals
KLQQSVLYESRNKNNVA,GASTRES,QQYHRLPLS,-0.51 -0.62 -0.65 -0.76 -0.73 -0.42,-0.62,0 of 18
KLSQLELYESRNKNSVA,NASTRES,QQYHRLPLS,-0.35 -0.33 -0.63 -0.78 -0.60 -0.40,-0.52,0 of 18
KLSQSVLYESRNKNSVA,GASYRES,QQYHRLPLS,-0.18 -0.39 -0.35 -0.64 -0.49 -0.29,-0.39,5 of 18 (3.10)
KLSQSVPYESRNKNSVA,DASTRES,QQYHRLPLS,-0.14 -0.31 -0.27 -0.43 -0.43 -0.35,-0.32,0 of 18

The authors averaged sequences with at least three values out of six and counted those with two or fewer as poor binders.
Background: pairings of all light chain designs with three empty control strains gave a value in 4% of cases (median 2.64, 5th percentile 1.59). Values in that range, when seen in few replicates, are hard to tell from nonspecific mating. Also given: how often the same scFv was detected with the empty control strains, with their mean in brackets.
The range of this assay differs from that of the first round, and the authors advise against merging the two.

Source: Li et al. 2023 (doi:10.1038/s41467-023-39022-2), MIT Lincoln Laboratory and A-Alpha Bio; data file from the FLAb repository.